From ChEMBL document CHEMBL1770097, “Non-competitive and selective dipeptidyl peptidase IV inhibitors with phenethylphenylphthalimide skeleton derived from thalidomide-related α-glucosidase inhibitors and liver X receptor antagonists” (Bioorg Med Chem Lett, 2011)

The chains behind the UniProt entries cited, without tags or fusion partners.
UniProt P27487, whole entry, looked up: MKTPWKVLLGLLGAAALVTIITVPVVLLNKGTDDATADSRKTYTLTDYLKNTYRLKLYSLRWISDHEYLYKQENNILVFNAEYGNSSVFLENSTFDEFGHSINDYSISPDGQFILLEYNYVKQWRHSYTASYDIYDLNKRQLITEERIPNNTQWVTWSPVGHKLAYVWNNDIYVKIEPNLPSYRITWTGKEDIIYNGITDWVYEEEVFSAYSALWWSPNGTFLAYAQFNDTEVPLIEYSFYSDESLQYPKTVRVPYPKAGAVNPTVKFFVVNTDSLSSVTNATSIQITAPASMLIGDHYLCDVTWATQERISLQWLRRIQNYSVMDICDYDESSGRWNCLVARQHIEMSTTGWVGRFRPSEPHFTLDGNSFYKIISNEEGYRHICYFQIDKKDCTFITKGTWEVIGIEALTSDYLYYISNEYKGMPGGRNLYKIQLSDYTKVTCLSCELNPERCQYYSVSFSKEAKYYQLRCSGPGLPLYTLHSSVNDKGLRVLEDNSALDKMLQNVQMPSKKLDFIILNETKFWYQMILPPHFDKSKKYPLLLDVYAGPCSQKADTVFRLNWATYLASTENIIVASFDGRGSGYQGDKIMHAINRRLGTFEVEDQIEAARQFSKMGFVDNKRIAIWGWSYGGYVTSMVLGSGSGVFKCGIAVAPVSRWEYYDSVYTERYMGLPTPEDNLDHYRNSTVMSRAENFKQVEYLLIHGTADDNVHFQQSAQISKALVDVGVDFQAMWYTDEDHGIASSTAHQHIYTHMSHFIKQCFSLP

Molecular target: Dipeptidyl peptidase 4 (Homo sapiens, UniProt P27487)
Experiment: Inhibition of DPP4 at 10 uM assessed as […] release after 1 hr relative to control

**Q.** How did the inhibition turn out when `CC[C@H](C)[C@H](N)C(=O)N1CCC[C@H]1C(=O)N[C@H](C(=O)O)[C@@H](C)CC` was run?
**A.** The inhibition was 14%.
